Laboratory results from the supplement of paper PMC10326909.

Assay: ESI positive response factor (isotope-corrected peak area per molar concentration) in SFC/ESI/HRMS (area units per M); higher = higher ionization efficiency
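Also: standards in acetonitrile/water run in triplicate on a zwitterionic HILIC column, CO2–methanol gradient containing 20 mmol/L ammonium acetate, postcolumn makeup flow, Orbitrap full-scan detection.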

OCCOCCOCCOCCO [Tetraethylene glycol]
Settings | ESI positive response factor
0.0122 µM | 1.13e+18
0.0244 µM | 5.16e+17
0.061 µM | 3.3e+17
0.122 µM | 2.2e+17
0.244 µM | 2.18e+17
0.61 µM | 1.82e+17
